Binding of CDR-mutated scFvs to a peptide of the spike HR2 region

Binding partner: SARS-CoV-2 spike HR2 peptide, sequence PDVDLGDISGINAS.

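The parent was found by panning a naive human phage display library on the peptide. The library (AAYL50) carries one to three amino acid substitutions per variant, with no insertions or deletions. AlphaSeq pools MATa yeast showing the antibodies with MATalpha yeast showing the peptide. Mating (16 h, 30 °C) was followed by selection of diploids and sequencing of their barcodes. Each replicate has its own calibration line, from reference interactions of the BCL2 family. Each pool was mated in three replicate cultures.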

The variants keep the heavy chain, the linker and the frameworks of Ab-14 (scFv order VH, three GGGGS repeats, VL).
VH: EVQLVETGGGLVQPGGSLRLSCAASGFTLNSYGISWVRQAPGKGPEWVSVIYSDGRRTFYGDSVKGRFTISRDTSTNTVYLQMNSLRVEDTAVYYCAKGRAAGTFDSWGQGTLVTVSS
VL: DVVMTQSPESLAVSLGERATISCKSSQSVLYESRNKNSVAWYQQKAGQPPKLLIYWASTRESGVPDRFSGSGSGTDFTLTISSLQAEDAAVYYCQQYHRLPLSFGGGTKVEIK

Positions count from residue 1 of the parent VL; S58T puts T in place of S.
The read-out is the apparent dissociation constant on a log10 scale (nM): the lower, the stronger.
Averages over replicates are reported, and they cover detected replicates only.
Where no diploid with the target was found in that replicate, the entry reads "nd": below detection, most likely a poor binder, though not proof of it.

changes | replicates, log10 nM | mean, log10 nM | control signals
S58T Q96H P101G | 1.90 / 1.93 / 2.11 | 1.98 | 3 of 9 (5.07)
Q27N Q96C P101K | nd / 3.64 / nd | 3.64 | 0 of 9
S26N R60E Q95Y | nd / nd / nd | nd | 1 of 9 (3.16)
Y31G V39D E61N | nd / nd / nd | nd | 1 of 9 (2.02)
Q27L A57G Q96P | nd / 2.93 / nd | 2.93 | 2 of 9 (3.55)
Q27A | 2.58 / 2.21 / 2.53 | 2.44 | 0 of 9
V29W Q95T Q96K | 0.31 / 0.67 / 0.42 | 0.47 | 0 of 9
L30A S33T S38W | nd / nd / nd | nd | 0 of 9
V39W S58T | nd / nd / nd | nd | 1 of 9 (3.25)
S25F A40R R99L | nd / 2.21 / nd | 2.21 | 1 of 9 (3.14)
L30I V39I S58C | nd / nd / nd | nd | 0 of 9
K24G Y31S A57K | 4.97 / 3.05 / 4.06 | 4.03 | 3 of 9 (4.36)
S28K E32Q S58D | 2.19 / 2.62 / 1.63 | 2.15 | 1 of 9 (3.24)
A40F W56Y H98Q | nd / nd / nd | nd | 0 of 9
V39F R60P Q95F | nd / nd / nd | nd | 3 of 9 (3.78)
S33V V39Y L100G | 4.79 / nd / nd | 4.79 | 1 of 9 (4.09)
Q27C V29D Q96F | 1.46 / 1.90 / 2.00 | 1.79 | 0 of 9
R34G | 0.04 / 0.38 / 0.21 | 0.21 | 1 of 9 (5.92)
Q27D S58F R60G | nd / nd / nd | nd | 1 of 9 (4.95)
L30M V39S L102N | nd / nd / nd | nd | 0 of 9
Y31A A57I L100C | nd / nd / nd | nd | 4 of 9 (4.64)
E32W | 1.12 / 1.37 / 1.29 | 1.26 | 3 of 9 (3.97)
S28Q Q96I R99Y | nd / 3.37 / nd | 3.37 | 0 of 9
S28E L100S L102E | nd / 2.96 / nd | 2.96 | 0 of 9
N37E S58W T59D | nd / nd / 4.48 | 4.48 | 6 of 9 (4.34)
K36S N37G S38P | 0.62 / 0.84 / 0.82 | 0.76 | 2 of 9 (4.27)
A40T Q96I | nd / nd / nd | nd | 0 of 9
A40W E61K Q96T | nd / nd / nd | nd | 1 of 9 (3.69)
K24F S25E Y97V | nd / nd / nd | nd | 1 of 9 (2.39)
Q27V S33G L100H | 5.87 / 3.78 / nd | 4.82 | 3 of 9 (4.18)
N37D A57D E61F | 3.32 / nd / nd | 3.32 | 0 of 9
A40N A57Q Y97W | nd / nd / nd | nd | 1 of 9 (4.88)
T59Q Q95G | 1.53 / 2.33 / 1.90 | 1.92 | 2 of 9 (4.55)
Y31R A57L Y97V | nd / nd / nd | nd | 3 of 9 (3.90)
A57Q H98I L102G | nd / nd / nd | nd | 0 of 9
S26V A40K S62N | nd / nd / nd | nd | 5 of 9 (4.78)
E32L A40C | nd / nd / nd | nd | 0 of 9
Y31T E32D S62G | 0.97 / 1.10 / 0.98 | 1.02 | 5 of 9 (4.23)
Q27K S62Y | 1.06 / 1.15 / 1.04 | 1.08 | 4 of 9 (4.17)

As a blank, each scFv also met three strains without target: over library AAYL50, 18% of these pairings were detected, typically at 4.19 and seldom below 2.99. Also given: how often the same scFv was detected with the empty control strains, with their mean in brackets.

Source: Engelhart et al. 2022 (doi:10.1038/s41597-022-01779-4), MIT Lincoln Laboratory and A-Alpha Bio; data file from the FLAb repository.